{"source": "patent US12644087B2", "about": "“Methods to generate polymer scaffolds having a gradient of crosslinking density” (The University of North Carolina at Chapel Hill, priority 2016, dated 2026)", "key": {"[1]": {"system": "primary murine colonic epithelial cells", "assay": "Basal-to-apical and apical-to-basal transport across primary murine colonic epithelial cell monolayer on crosslinked collagen meshwork", "format": "in vitro ADME", "details": "day 5 of cell culture, TEER >2,000 Ω·cm^2"}, "[2]": {"system": "primary human small intestinal epithelial cells"}}, "data": [{"substance": "rhodamine 123", "values": [{"measurement": "permeability basal-to-apical relative to apical-to-basal", "setting": "[1]", "value": "~7", "unit": "fold"}, {"measurement": "permeability of rhodamine 123 (basal-to-apical transport)", "setting": "[2]", "value": "37.4±1.3 ×10^−8 cm·s^−1"}, {"measurement": "permeability of rhodamine 123 relative to Lucifer yellow", "setting": "[2]", "value": 15, "unit": "times"}]}]}
